The list shows a part of the results, in another mix than the full data. Some results for these compounds are left out of this collection, so the calls shown say nothing about other tests. Calls of active or inactive are those of the source. Calls follow the shape of the dose curve; as a rule, active = well fitted inhibition curve with a large enough effect; inconclusive = small, poorly fitted or top-dose-only effect; inactive = no such curve, though single readings can be large or run the other way.
These molecules were tested against Flap endonuclease 1 (Homo sapiens) (UniProt P39748) (assay: qHTS Assay for the Inhibitors of Human Flap endonuclease 1 (FEN1).). Details: Recombinant FEN1 flap cleavage, fluorescence, 15 min; at 114 µM (top of the series).
% is scaled to controls: 0 for no effect and ±100 for the full control effect.
Also: nearly all actives have a fitted effect of over 65% in size.

The chains behind the UniProt entries cited, without tags or fusion partners.
UniProt P39748, whole entry: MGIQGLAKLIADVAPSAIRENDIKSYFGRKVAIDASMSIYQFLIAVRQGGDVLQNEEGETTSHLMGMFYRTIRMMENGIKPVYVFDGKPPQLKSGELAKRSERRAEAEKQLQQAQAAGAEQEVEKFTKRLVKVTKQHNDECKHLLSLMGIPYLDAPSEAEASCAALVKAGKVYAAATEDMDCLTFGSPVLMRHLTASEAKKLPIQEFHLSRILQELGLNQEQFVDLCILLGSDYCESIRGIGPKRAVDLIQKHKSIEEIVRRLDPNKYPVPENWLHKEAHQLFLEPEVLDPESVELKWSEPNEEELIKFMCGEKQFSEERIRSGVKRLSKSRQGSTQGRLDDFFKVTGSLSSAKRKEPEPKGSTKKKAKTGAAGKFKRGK

Row | Structure (SMILES) | activity change, negative = inhibition
1 | CN(C)C1(CNC(=O)c2ccc(Br)cc2)CCCCC1 | inactive: -0.568%
2 | O=C(CBr)c1ccc(Cl)cc1 | inactive: 16.4%
3 | O=C(NCC1(N2CCCCC2)CCCCC1)c1cccc(Cl)c1 | inactive: 2.72%
4 | COc1ccc(C(=O)NCC2(N(C)C)CCCCC2)cc1Cl | inactive: -3.09%
5 | COc1ccc(Cl)cc1C(=O)NCC1(N(C)C)CCCCC1 | inactive: 9.37%
6 | COc1cccc(C(=O)NCC2(N3CCCCC3)CCCCC2)c1 | inactive: -6.1%
7 | O=C(OC1CN2CCC1CC2)C(CO)(c1ccccc1)c1ccccc1 (stereo not given) | inactive: -8.49%
8 | COc1cccc(C(=O)NCC2(N3CCOCC3)CCCCC2)c1 | inactive: -10%
9 | O=C(OCCN1CCCC1)C(O)(c1ccccc1)c1ccccc1 | inactive: 0.568%
10 | COc1ccc(Br)c(C(=O)NCC2(N3CCCCC3)CCCCC2)c1 | inactive: -16.3%
11 | Cc1cccc(C(=O)NCC2(N(C)C)CCCCC2)c1 | inactive: -0.929%
12 | COc1cc(C(=O)NCC2(N(C)C)CCCCC2)cc(OC)c1OC | inactive: 1.83%
13 | CN1[C@@H]2CC[C@H]1CC(OC(=O)C(O)(c1ccccc1)c1ccccc1)C2 (stereo not given in full) | inactive: 2.44%
14 | O=C(NCC1(N2CCCCC2)CCCCC1)c1cc([N+](=O)[O-])ccc1Cl | inactive: -0.849%
15 | CN(C)C1(CNC(=O)c2ccccc2F)CCCCC1 | inactive: 2.48%
16 | Cc1ccc(C(=O)NCC2(N3CCCCC3)CCCCC2)cc1 | inactive: -3.35%
17 | CC(C)N1C(=O)CC2(CCN(CCOC(=O)C(O)(c3ccccc3)c3ccccc3)CC2)C1=O | inactive: 1.33%
18 | COc1cc(SC)ccc1C(=O)NCC1(N(C)C)CCCCC1 | inactive: -8.53%
19 | CN(C)C1(CNC(=O)c2cccc(Cl)c2)CCCCC1 | inactive: -4.73%
20 | CCN(CC)CC(C)C(C)OC(=O)C(O)(c1ccccc1)c1ccccc1 (stereo not given) | inactive: -0.296%
21 | CCCCOc1ccccc1C(=O)NCC1(N(C)C)CCCCC1 | inactive: -9.06%
22 | CN(C)C1CCCC1OC(=O)C(O)(c1ccccc1)c1ccccc1 (stereo not given) | inactive: 0.864%
23 | CN(C)c1ccc(C(=O)NCC2(N(C)C)CCCCC2)cc1 | inactive: -5.6%
24 | CN(C)C1(CNC(=O)c2ccccc2[N+](=O)[O-])CCCCC1 | inactive: 7.09%
25 | Cc1ccccc1C(=O)NCC1(N2CCCCC2)CCCCC1 | inactive: -6.97%
26 | O=C(NCC1(N2CCCCC2)CCCCC1)c1cccc(Br)c1 | inactive: 1.06%
27 | CCN1CCCC(OC(=O)C2(O)c3ccccc3C=Cc3ccccc32)C1 (stereo not given) | inactive: -2.86%
28 | CCOc1cccc(C(=O)NCC2(N(C)C)CCCCC2)c1 | inactive: 22.5%
29 | COc1ccc(C(=O)NCC2(N(C)C)CCCCC2)cc1 | inactive: -3.28%
30 | O=C(NCC1(N2CCCCC2)CCCCC1)c1cc(F)c(F)cc1Cl | inactive: -3.44%

Source: PubChem BioAssay AID588795 (National Center for Advancing Translational Sciences (NCATS), 2011)
